Results published in ChEMBL document CHEMBL6114983 (Bioorg Med Chem, 2025).
Only a part of the results on these compounds is given; other tests are left out.

The chains behind the UniProt entries cited, without tags or fusion partners. Residues count along the entry.
UniProt Q16769, 29-361 limits assumed: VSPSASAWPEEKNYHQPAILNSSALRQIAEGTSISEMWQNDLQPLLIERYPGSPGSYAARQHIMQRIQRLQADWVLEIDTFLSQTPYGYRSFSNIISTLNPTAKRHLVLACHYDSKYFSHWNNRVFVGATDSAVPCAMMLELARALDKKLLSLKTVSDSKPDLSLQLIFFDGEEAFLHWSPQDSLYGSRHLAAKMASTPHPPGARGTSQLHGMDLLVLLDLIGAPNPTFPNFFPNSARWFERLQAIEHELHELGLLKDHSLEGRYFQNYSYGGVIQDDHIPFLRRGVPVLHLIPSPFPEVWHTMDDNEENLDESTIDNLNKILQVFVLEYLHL

Molecular target: Glutaminyl-peptide cyclotransferase (Homo sapiens, UniProt Q16769)

## COc1ccc(N(C(=O)NCCCn2cncc2C)C2CCN(C(=O)OC(C)(C)C)CC2)cc1OC
  IC50: 0.0153 µM
